The test system of the assay is parent strain H-9340.

SMILES strings stand for the structures. Structures can show the parent of a compound that is named as a salt.

With `COc1cc(NC(C)CCCN)c2ncccc2c1` (centres unmarked) [Primaquine disodium salt, primaquine disodium salt], the “Growth or non-growth of the strain on agar plate medium” value (150 mg/liter primaquine disodium salt in agar plate medium, 1 to 10 cells/cm^2, 33° C. for 4 days) is listed as “−”. In addition, the “Growth of the strain on agar plate culture medium containing primaquine” value (agar plate culture medium containing primaquine, 33° C. for 4 days) is “did not grow”.

The values are drawn from US7871808B2, “Isolated microorganism having an ability to produce L-histidine” (priority 1999, dated 2011).
